# Results reported in ChEMBL document CHEMBL1121916, “Structure-activity relationships in dihydropteroate synthase inhibition by sulfanilamides. Comparison with the antibacterial activity” (J Med Chem, 1981).
# Assay: PKa value was measured
# Format: physicochemical
smiles,measurement,value
Nc1ccc(S(=O)(=O)Nc2ncccn2)cc1 [SULFADIAZINE],pKa,6.37
